# scFv variants of Ab-14 (heavy chain) against a SARS-CoV-2 spike peptide

Data: MIT Lincoln Laboratory AlphaSeq set, Engelhart et al. 2022, doi:10.1038/s41597-022-01779-4, as distributed in FLAb.

The target is the same throughout: PDVDLGDISGINAS, from the HR2 region of SARS-CoV-2 spike.

Ab-14 is the parent antibody, in scFv form: VH, then a 15-residue (Gly4Ser)3 linker, then VL. The light chain is unchanged in all variants.
VH: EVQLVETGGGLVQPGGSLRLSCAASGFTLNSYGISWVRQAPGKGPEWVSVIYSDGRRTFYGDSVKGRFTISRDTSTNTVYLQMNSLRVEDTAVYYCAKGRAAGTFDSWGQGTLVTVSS
VL: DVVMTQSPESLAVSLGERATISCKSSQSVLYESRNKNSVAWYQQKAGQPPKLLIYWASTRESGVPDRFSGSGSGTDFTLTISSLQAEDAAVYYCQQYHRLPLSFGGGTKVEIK

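The parent was found by panning a naive human phage display library on the peptide. AAYL49 was designed without a model: most single CDR substitutions and a random sample of double and triple ones. The assay is AlphaSeq: two haploid yeast populations carry antibody and antigen on their surface. After mating in shaken culture at 30 °C for 16 h, diploids were selected and their barcode pairs sequenced. Read counts were normalised to the haploid input and turned into Kd by a linear fit to BCL2-family pairs of known affinity, for each replicate. The assay was run in three technical replicates.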

Sequences are complete VH domains. Every variant below is changed at G99 of the VH (sequential numbering). Values are apparent Kd, the geometric mean of the replicates that gave a signal; lower means stronger binding. Where no diploid with the target was found in any replicate, the entry reads "nd": below detection, most likely a poor binder, though not proof of it. As a blank, each scFv also met three strains without target: over library AAYL49, 15% of these pairings were detected, typically at 11 µM and seldom below 680 nM.

* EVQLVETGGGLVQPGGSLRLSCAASGFTLNSYGISWVRQAPGKGPEWVSVIYSDGRRTFYGDSVKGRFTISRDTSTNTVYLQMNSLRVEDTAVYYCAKLRAAGAFVSWGQGTLVTVSS: nd (0 of 3 replicates)
* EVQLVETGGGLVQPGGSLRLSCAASGFTLNSYGISWVRQAPGKGPEWVSQIYSDGRWTFYGDSVKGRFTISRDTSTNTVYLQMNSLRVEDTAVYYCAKNRAAGTFDSWGQGTLVTVSS: nd (0 of 3 replicates)
* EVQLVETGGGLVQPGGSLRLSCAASGFTLNHYGISWVRQAPGKGPEWVSVIQSDGRRTFYGDSVKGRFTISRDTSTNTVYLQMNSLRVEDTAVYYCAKERAAGTFDSWGQGTLVTVSS: 19 µM (2 of 3 replicates)
* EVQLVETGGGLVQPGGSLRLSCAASGFTLNSYGGSWVRQAPGKGPEWVSVIYSDGRRTFYPDSVKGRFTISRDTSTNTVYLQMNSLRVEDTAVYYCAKTRAAGTFDSWGQGTLVTVSS: nd (0 of 3 replicates)
* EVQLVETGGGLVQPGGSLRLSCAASGFTLNSYWISWVRQAPGKGPEWVSVIYSDGRRTFYGDSVKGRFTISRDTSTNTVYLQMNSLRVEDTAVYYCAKRRAAGTFDQWGQGTLVTVSS: nd (0 of 3 replicates)
* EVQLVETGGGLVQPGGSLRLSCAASWFTLNSYGISWVRQAPGKGPEWVSVHYSDGRRTFYGDSVKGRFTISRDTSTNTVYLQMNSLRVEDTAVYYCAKMRAAGTFDSWGQGTLVTVSS: nd (0 of 3 replicates)
* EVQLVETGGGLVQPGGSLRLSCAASGFALNSYGISWVRQAPGKGPEWVSVIYSDGRRTFYGDSVKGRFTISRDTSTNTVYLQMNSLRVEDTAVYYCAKERAAGTFDSWGQGTLVTVSS: nd (0 of 3 replicates)
* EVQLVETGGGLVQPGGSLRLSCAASGTTLWSYGISWVRQAPGKGPEWVSVIYSDGRRTFYGDSVKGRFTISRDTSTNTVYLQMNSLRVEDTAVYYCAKIRAAGTFDSWGQGTLVTVSS: 7.4 µM (1 of 3 replicates)
* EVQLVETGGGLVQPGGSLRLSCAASGFTLNWYGISWVRQAPGKGPEWVSVIYSDGRRTFYGDSVKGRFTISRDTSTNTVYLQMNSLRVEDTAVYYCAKWRAAGTFDSWGQGTLVTVSS: nd (0 of 3 replicates)
* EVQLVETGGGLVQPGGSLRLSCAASGFTLNSYGISWVRQAPGKGPEWVSVIYSDRRRTFYGDSVKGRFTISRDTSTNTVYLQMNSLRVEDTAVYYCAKMRAAGTFDSWGQGTLVTVSS: 500 µM (1 of 3 replicates)
* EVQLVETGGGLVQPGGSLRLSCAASGCTLNSYAISWVRQAPGKGPEWVSVIYSDGRRTFYGDSVKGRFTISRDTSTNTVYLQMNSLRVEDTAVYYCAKQRAAGTFDSWGQGTLVTVSS: nd (0 of 3 replicates)
* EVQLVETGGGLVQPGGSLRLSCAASGFTLMSYGISWVRQAPGKGPEWVSVIYSDGRRTFYGDSVKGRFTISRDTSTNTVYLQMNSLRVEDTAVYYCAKSRAAGTFDSWGQGTLVTVSS: nd (0 of 3 replicates)
* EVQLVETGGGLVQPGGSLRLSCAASGFTLNSYGISWVRQAPGKGPEWVSVIYSDGRRTFYGDSVKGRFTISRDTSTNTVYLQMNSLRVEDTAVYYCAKQRAAGIFDSWGQGTLVTVSS: nd (0 of 3 replicates)
* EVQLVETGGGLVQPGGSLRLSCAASGFTLNSYHISWVRQAPGKGPEWVSVIYGDGRRTFYGDSVKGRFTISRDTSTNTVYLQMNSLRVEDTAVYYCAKRRAAGTFDSWGQGTLVTVSS: nd (0 of 3 replicates)
* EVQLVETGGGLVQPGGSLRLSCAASGFTLKSYGISWVRQAPGKGPEWVSVIYSDGRRTFYGDSTKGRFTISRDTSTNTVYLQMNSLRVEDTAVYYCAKERAAGTFDSWGQGTLVTVSS: nd (0 of 3 replicates)